Key:
[1] = target: CD73 (Homo sapiens, UniProt P21589); assay: In vitro enzymatic activity against CD73 (malachite green test using soluble CD73); conditions: read-out: Enzymatic activity IC50, soluble CD73 36 ng/mL, 50 μM AMP, 30 minutes at 25° C.
Procedure: The malachite green test using soluble CD73, which is synthesized in vitro was used in the present invention to determine the characteristics of inhibitory activity of the compounds against CD73. The specific experimental procedures were as following:
1. The enzyme reaction in this experiment was carried out in 384-well plates, and CD73 (R&D systems #5795-EN-010) at a concentration of 36 ng/mL, the compounds at different concentrations and 50 μM AMP were incubated for 30 minutes at 25° C. in a 40 uL reaction system (consisting of 25 mM Tris pH 7.5, 5 mM MgCl2, and 0.005% Tween-20);
2. Then, 10 μL of malachite green solution (Sigma) was added to each well to terminate the reaction;
3. The concentration of resulting inorganic phosphate was determined according to the instructions of the reagent manufacturer;
4. The enzymatic activity of CD73 was calculated based on the concentration of the product, and then IC50 values were determined by non-linear regression analysis of the inhibition percentage of the compounds of the present invention at different concentrations.

Protein sequences, listed by entry. Tags and fused reporters are not part of them. Residues count along the entry.
UniProt P21589, 27-547 limits assumed: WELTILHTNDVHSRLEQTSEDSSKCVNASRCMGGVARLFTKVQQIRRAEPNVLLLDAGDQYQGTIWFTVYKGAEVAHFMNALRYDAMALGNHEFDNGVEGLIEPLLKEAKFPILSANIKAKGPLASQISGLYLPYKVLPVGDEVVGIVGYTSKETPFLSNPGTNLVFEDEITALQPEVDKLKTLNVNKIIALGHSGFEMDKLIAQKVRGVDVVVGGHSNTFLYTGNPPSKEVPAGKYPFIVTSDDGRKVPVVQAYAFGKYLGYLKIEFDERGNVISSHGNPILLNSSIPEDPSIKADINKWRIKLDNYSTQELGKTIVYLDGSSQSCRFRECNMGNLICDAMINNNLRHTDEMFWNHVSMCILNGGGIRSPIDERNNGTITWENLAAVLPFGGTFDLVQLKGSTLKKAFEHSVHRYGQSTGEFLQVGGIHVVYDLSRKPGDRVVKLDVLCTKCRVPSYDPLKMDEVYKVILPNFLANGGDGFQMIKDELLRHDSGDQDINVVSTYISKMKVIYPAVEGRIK
UniProt P21589, 27-549 limits assumed: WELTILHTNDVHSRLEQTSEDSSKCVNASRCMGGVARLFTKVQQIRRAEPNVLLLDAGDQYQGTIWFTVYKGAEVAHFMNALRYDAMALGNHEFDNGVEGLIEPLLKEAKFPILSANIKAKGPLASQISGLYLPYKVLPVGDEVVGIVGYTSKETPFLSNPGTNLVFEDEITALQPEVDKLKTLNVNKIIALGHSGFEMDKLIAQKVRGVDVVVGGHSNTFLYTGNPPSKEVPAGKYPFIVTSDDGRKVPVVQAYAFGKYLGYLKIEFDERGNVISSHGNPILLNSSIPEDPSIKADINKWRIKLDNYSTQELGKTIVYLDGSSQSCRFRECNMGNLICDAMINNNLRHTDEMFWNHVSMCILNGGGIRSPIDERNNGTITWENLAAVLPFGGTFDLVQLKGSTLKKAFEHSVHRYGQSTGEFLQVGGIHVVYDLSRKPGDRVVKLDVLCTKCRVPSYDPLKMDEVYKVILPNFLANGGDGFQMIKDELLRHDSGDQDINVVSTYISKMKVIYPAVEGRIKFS

[2] = target: CD73 enzymatic activity expressed on the cell surface of MDA-MB-231 cells (Homo sapiens, UniProt P21589); assay: Inhibition of CD73 enzymatic activity on the cell surface (Cell Titer Glo (CTG) experiment), MDA-MB-231 cells; conditions: read-out: Cellular activity IC50; MDA-MB-231 cells endogenously expressing CD73, AMP, 37° C. for 2 hours, CTG readout
Procedure: Human breast cancer cells MDA-MB-231 that endogenously express CD73 were used in the present invention to evaluate the inhibition of the compound against the CD73 enzymatic activity expressed on the cell surface. The cells used were from the Cell Bank of the Chinese Academy of Sciences. The specific experimental procedures were as follows:
1. Before the test, MDA-MB231 cells were seeded to a 96-well plate at 20000 cells/well;
2. In RPMI1640, 10% fetal bovine serum (Gibco, 10099-141), placed in a 5% CO2 incubator at 37° C. overnight (the cells were washed three times by using a serum-free RPMI medium right before the test):
3. […]
4. 25 μL of 1.2 mM AMP was added for incubation at 37° C. for 2 hours, 25 μL of supernatant was then collected from the cells and mix with 25 μL of 100 μM ATP, and then the concentration of AMP in the samples was determined by CTG (Promega, #G7573);
5. Then, a reduction ratio of the substrate AMP level in the cell culture supernatant collected after the reaction was quantitatively determined to evaluate the inhibitory effects of the examples of the present invention and the positive compounds against the CD73 enzymatic activity on the cell surface;
6. Finally, the concentration of the compound leading to half maximal inhibition of enzymatic activity (IC50) was determined using a four-parameter non-linear logistic model curve fit in Graphpad Prism.

`C[C@H](Nc1nc(Cl)nc2c1ccn2[C@@H]1O[C@H](COP(=O)(O)CP(=O)(O)O)[C@@H](O)[C@H]1O)c1ccccc1F` showed an IC50 [1] of 3.37 nM and an IC50 [2] of 0.508 nM.
